Experiment [1] addresses ER-β (Gen Bank Accession #X99101) (Homo sapiens, UniProt Q92731). As to the kind of experiment: Estrogen receptor binding, competition with [125I]-estradiol, ER-β. Particulars: read-out: ER-β Ki nM; competition with 150 pM [125I]-estradiol; receptor-programmed reticulocyte lysate; overnight at 4° C.; Cheng-Prushoff from IC50.
Experiment [2] deals with ER-α (Gen Bank Accession #M12674) (Homo sapiens, UniProt P03372). As to the kind of experiment: Estrogen receptor binding, competition with [125I]-estradiol, ER-α. The note with it: read-out: ER-α Ki nM; competition with 150 pM [125I]-estradiol; receptor-programmed reticulocyte lysate; overnight at 4° C.; Cheng-Prushoff from IC50.

The chains behind the UniProt entries cited, without tags or fusion partners. Residues count along the entry.
UniProt Q92731, 54-530 limits assumed: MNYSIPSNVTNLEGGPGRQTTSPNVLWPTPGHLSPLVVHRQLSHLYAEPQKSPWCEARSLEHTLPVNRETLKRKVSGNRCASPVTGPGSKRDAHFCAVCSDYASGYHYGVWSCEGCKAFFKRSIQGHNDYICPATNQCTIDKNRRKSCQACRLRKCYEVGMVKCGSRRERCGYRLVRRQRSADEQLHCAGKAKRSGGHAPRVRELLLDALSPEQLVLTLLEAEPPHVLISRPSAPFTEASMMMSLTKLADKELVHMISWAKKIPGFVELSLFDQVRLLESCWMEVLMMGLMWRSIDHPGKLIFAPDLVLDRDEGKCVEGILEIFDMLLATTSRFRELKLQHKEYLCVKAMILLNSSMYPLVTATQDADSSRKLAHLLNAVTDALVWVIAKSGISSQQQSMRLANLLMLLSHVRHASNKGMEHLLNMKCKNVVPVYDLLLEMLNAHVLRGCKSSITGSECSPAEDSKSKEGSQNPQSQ
UniProt P03372, whole entry: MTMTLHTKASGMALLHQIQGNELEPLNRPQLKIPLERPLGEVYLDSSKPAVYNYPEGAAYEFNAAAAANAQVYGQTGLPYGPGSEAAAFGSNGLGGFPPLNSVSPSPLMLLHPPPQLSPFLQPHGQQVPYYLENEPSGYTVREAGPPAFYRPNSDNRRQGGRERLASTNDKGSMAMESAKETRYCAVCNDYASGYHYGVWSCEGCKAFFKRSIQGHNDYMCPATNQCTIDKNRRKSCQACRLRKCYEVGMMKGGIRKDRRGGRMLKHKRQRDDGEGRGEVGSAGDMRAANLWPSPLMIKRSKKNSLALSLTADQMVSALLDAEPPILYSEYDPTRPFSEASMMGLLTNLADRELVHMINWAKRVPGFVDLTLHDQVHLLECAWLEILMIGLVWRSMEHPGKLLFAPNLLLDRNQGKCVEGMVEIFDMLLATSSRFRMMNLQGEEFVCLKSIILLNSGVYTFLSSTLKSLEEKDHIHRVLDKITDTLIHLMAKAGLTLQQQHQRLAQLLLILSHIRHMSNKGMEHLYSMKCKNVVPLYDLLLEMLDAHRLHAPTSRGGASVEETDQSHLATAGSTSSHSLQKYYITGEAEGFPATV

`O=c1oc2cc(O)ccc2cc1-c1cccs1`: the Ki was 108 nM in experiment [1] and greater than 3000 nM in experiment [2].

`CC(C)Oc1ccc(-c2c(C(F)(F)F)oc3cc(O)ccc3c2=O)cc1`: the Ki in experiment [1] stood at 118 nM. In the case of `O=c1oc2c(O)cccc2cc1-c1ccc(O)cc1`, the figures for the Ki in experiment [1] and in experiment [2] were 104 nM and greater than 3000 nM, respectively.

Turning to `O=C1c2ccc(O)cc2CCC1c1cccc(Br)c1` (stereo not drawn), in experiment [1], the Ki was found to be 116 nM.

Values taken from US6518301B1, “Estrogen receptor-β ligands” (AstraZeneca AB, priority 1999, dated 2003).
